Data reported in PMC3779200, “Structural, Biochemical and Genetic Characterization of Dissimilatory ATP Sulfurylase from Allochromatium vinosum” (PLoS ONE, 2013).

Substrate: Nc1ncnc2c1ncn2[C@@H]1O[C@H](COP(=O)(O)OS(=O)(=O)O)[C@@H](O)[C@H]1O
Experiment: purified protein
Conditions: pH 8.0; 30.0 °C

B1: ATP sulfurylase (ATPS) from Allochromatium vinosum, sat-encoded dissimilatory ATP sulfurylase (enzyme)
chain: MIKPVGSDELRPRFVYDPEQHHRLSSEAESLPSVIVSSQAAGNAVMLGAGYFSPLDGFMNLADALSSAQSMTLTDGRFFPVPLLCLLESADAIAGATRIALRDPNVEGNPVLAVMDVTAVEQVSDAQMALMTEQVYGTSDPKHPGVETFNSQGRTAISGPIQVLNFSYFQTDFPDTFRTAVEIRHEIQERGWQKIVAFQTRNPMHRAHEELCKMAMEAVEADGVVIHMLLGQLKPGDIPAPVRDAAIRTMAELYFPPNTVMVTGYGFDMLYAGPREAVLHAYFRQNMGATHFIIGRDHAGVGDYYGPFDAQTIFDDAVPTDVLAIEIFRADNTAYSKKLGRVVMMRDAPDHTPDDFIQLSGTRVREMLGQGEAPPPEFSRPEVAQILMDYYRSLPQS
notes: ATP sulfurylase encoded by the sat gene of Allochromatium vinosum (Alvin_1118; E.C; 2.7.7.4); sat gene amplified from chromosomal DNA and cloned between NdeI and BamHI of pET-11a; the structure describes domains I (1-172), II (173-331) and III (332-396); The protein for crystallization was purified without a nickel column; a His-tagged protein is named only for the kinetic characterization, …
  Km: 9.5 µM
